The values below come from US8420681B2, “Dioxo-imidazolidine derivatives, which inhibit the enzyme SOAT-1, and pharmaceutical and cosmetic compositions containing them” (Galderma Research & Development, priority 2009, dated 2013).

By UniProt entry, the sequences of proteins in these tests, tags left out.
UniProt P35610, whole entry: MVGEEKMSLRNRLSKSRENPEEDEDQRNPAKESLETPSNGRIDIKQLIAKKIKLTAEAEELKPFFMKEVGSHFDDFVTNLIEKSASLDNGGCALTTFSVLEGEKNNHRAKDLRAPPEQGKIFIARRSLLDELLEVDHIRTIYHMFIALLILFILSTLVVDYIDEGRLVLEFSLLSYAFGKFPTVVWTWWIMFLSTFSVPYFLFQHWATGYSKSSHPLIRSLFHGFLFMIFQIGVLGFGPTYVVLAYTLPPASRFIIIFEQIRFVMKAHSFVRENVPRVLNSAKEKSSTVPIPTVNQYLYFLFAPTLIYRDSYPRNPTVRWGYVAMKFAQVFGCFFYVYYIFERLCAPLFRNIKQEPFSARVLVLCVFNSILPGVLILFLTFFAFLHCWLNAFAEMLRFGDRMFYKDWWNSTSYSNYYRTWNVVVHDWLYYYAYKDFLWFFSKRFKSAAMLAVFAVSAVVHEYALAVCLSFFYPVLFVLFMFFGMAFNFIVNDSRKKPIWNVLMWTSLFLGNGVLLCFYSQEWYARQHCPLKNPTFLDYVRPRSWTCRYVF

In the experiment the target is enzyme ACAT-1 (Homo sapiens, UniProt P35610). The experiment can be described thus: HepG2 NBD-cholesterol fluorescence test of inhibitory activity towards ACAT-1 (SOAT-1). As to conditions: HepG2 cells, NBD-cholesterol 1 μg/ml, incubation 6 hours at 37° C., fluorescence read (490/540 nm). The method, then:
The compounds (I) according to the invention, and also the pharmaceutically acceptable salts, solvates and/or hydrates thereof, have inhibitory properties on the enzyme SOAT-1. This inhibitory activity on the enzyme SOAT-1 is measured according to a HepG2 primary enzymatic test, as described in Example 23.
The compounds of formula (I) according to the invention were subjected to a test for evaluating their inhibitory activity towards the enzyme ACAT-1, inspired by the following publication: “Identification of ACAT1- and ACAT2-specific inhibitors using a novel, cell based fluorescence assay: individual ACAT uniqueness”, J. Lipid. Res. (2004) vol. 45, pages 378-386.
The principle of this test is based on the use of NBD-cholesterol, a cholesterol analogue whose fluorescence depends on its environment. When this molecule is in a polar environment, it is weakly fluorescent, whereas in a non-polar environment, it is strongly fluorescent. […]
The method below is applied: HepG2 cells are incubated in the presence of NBD-cholesterol (1 μg/ml) and of the test compound of formula (I) in black 96-well transparent-bottomed plates, at a rate of 30 000 cells per well. […] After addition of 50 μl of lysis buffer (10 mM NaPO4, 1% Igepal), the plates are shaken for 5 minutes and the fluorescence is read (excitation at 490 nm, emission at 540 nm) on a Fusion machine (Perkin-Elmer). […]

The structures appear in SMILES notation.

The IC50 is the midpoint of a concentration-inhibition curve. Low readings indicate higher potency, high ones lower potency. Turning to `Cc1ccc(N2C(=O)N(CC(=O)NCc3ccccc3)C(=O)C23CCCCC3)cc1`, the IC50 is 1190 nM.
